Source: PMC6834678

Chains of the proteins cited; added tags and fusions are not shown. Where a name states a change or a piece, a line headed by the entry shows the natural chain unless it says otherwise. A line that says so, or that is headed by a name, gives the form on record, which may keep a tag or linker. Residues count along the entry.
UniProt P55899, 24-297, chain 1 of 2: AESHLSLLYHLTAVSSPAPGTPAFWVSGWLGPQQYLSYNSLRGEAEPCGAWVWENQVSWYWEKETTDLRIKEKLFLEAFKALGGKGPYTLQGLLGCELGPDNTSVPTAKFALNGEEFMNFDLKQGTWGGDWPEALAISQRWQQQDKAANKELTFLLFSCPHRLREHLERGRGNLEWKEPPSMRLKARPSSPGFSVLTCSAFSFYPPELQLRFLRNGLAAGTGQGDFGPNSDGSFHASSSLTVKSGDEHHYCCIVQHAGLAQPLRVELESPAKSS
DHS-IgG1 (Trastuzumab IgG1 with L309D/Q311H/N434S in the Fc domain) (human), light, as listed by the source, chain 2 of 2: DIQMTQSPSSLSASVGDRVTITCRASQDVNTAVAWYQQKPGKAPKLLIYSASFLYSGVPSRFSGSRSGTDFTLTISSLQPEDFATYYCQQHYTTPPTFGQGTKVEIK

Columns and labels:
[1] = molecular target: human FcγRIIIa V158 (monomeric) (human); experiment: SPR; monomeric Fc receptors; equivalent binding model
[2] = molecular target: human FcRn/human β2m complex (hFcRn:hβ2m dimer) (human) (UniProt P55899); experiment: SPR; hFcRn:hβ2m dimer immobilised at high density (4000 RU, amine coupling); antibodies injected at 800-50 nM in PBS, pH 7.4, 30 μL/min
[3] = molecular target: human FcRn/human β2m complex (hFcRn:hβ2m dimer) (human) (UniProt P55899); experiment: SPR; hFcRn:hβ2m dimer immobilised at medium density (2000 RU, amine coupling); antibodies injected at 800-50 nM in PBS, pH 7.4, 30 μL/min
[4] = molecular target: DHS-IgG1 (Trastuzumab IgG1 with L309D/Q311H/N434S in the Fc domain) (human); experiment: SPR; IgG1 variants immobilised on a CM5 chip (~500 RU, amine coupling); hFcRn:hβ2m dimer injected at 1000-40 nM in PBS, pH 5.8, 30 μL/min
[5] = molecular target: LS-IgG1 (Trastuzumab IgG1 with M428L/N434S in the Fc domain) (human); experiment: as above
[6] = molecular target: YTE-IgG1 (Trastuzumab IgG1 with M252Y/S254T/T256E in the Fc domain) (human); experiment: as above
[7] = molecular target: wt-IgG1 (Trastuzumab with the wild-type human IgG1 Fc domain) (human); experiment: as above

Substance | Kd [1] | Kd [2] | Kd [3] | also measured
human FcRn/human β2m complex (hFcRn:hβ2m dimer) (from UniProt P55899 24-297; P61769 21-119) |  |  |  | Kd [4]: 110 nM; Kd [5]: 55 nM; Kd [6]: 23 nM; Kd [7]: 550 nM
DHS-IgG1 (Trastuzumab IgG1 with L309D/Q311H/N434S in the Fc domain) (antibody) | 180 nM |  |  | 

Continued, in another order:

Kd [1] | Kd [2] | Kd [3] | Substance | also measured
820 nM | 4290 nM | 4730 nM | YTE-IgG1 (Trastuzumab IgG1 with M252Y/S254T/T256E in the Fc domain) (antibody) | 
170 nM |  |  | wt-IgG1 (Trastuzumab with the wild-type human IgG1 Fc domain) (antibody) | 
520 nM | 567 nM | 946 nM | LS-IgG1 (Trastuzumab IgG1 with M428L/N434S in the Fc domain) (antibody) | 
